Laboratory results as given in ChEMBL document CHEMBL1133608 (J Med Chem, 2000).

Sequences of proteins named here, by UniProt entry; tags and fusion partners are left off.
UniProt P61169, whole entry: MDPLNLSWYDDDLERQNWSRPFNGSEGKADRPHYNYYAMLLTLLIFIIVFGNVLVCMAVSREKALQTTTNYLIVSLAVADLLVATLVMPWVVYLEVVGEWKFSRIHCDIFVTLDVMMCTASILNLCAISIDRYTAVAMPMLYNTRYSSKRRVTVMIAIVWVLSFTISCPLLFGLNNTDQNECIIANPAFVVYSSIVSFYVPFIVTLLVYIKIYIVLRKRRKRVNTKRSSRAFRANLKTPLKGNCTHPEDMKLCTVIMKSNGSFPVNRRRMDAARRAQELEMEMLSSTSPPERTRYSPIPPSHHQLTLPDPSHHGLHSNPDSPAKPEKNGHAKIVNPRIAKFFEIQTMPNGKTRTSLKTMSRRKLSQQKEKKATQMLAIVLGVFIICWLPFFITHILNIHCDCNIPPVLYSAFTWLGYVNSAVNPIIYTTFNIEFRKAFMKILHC
UniProt P61169, whole entry S194A: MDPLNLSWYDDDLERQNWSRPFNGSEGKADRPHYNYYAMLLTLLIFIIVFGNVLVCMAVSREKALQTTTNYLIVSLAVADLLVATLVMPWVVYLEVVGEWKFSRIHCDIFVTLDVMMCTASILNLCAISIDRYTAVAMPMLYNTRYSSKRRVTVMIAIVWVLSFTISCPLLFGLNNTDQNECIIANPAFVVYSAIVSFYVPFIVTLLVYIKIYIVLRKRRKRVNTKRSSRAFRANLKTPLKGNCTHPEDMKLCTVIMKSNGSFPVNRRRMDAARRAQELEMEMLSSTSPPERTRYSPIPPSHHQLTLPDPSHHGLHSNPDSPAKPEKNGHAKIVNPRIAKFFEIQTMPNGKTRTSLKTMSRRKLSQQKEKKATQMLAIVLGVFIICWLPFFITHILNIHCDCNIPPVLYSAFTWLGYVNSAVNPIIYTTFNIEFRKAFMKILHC
UniProt P61169, whole entry S197A: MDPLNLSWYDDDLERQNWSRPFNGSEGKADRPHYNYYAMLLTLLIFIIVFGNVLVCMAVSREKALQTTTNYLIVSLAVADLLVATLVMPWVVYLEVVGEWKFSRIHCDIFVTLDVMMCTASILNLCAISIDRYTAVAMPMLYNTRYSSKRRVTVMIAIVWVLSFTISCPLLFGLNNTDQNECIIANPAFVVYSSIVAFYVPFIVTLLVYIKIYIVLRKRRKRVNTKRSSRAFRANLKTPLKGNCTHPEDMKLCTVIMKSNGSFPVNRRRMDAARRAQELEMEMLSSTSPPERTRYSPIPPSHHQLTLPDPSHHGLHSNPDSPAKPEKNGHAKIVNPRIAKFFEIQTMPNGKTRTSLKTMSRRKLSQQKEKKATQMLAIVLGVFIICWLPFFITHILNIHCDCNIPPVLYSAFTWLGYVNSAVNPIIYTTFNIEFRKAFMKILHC

How the values were obtained:
Test in all cases: biochemical
Format in all cases: cell-based, C6 glioma
D(2) dopamine receptor [1] = biological target: D(2) dopamine receptor (Rattus norvegicus, UniProt P61169)
D(2) dopamine receptor [2] = biological target: T1, D(2) dopamine receptor (Rattus norvegicus, UniProt P61169, S194A)
D(2) dopamine receptor [3] = biological target: D(2) dopamine receptor (Rattus norvegicus, UniProt P61169, S197A)
D(2) dopamine receptor [4] = biological target: T1, D(2) dopamine receptor; remark: listed apart in the source

Kd (D(2) dopamine receptor [1]): 200 nM | Kd (D(2) dopamine receptor [2]): 1200 nM | Kd (D(2) dopamine receptor [3]): 600 nM | Kd (D(2) dopamine receptor [4]): 1600 nM
Structure (SMILES): CN1CCc2cccc3c2[C@H]1Cc1ccc(O)c(O)c1-3 [APOMORPHINE]
